A word on the Ki: it is the dissociation constant of the complex between target and ligand, obtained from inhibition or displacement.

Chains of the proteins cited; added tags and fusions are not shown.
UniProt P41143, whole entry: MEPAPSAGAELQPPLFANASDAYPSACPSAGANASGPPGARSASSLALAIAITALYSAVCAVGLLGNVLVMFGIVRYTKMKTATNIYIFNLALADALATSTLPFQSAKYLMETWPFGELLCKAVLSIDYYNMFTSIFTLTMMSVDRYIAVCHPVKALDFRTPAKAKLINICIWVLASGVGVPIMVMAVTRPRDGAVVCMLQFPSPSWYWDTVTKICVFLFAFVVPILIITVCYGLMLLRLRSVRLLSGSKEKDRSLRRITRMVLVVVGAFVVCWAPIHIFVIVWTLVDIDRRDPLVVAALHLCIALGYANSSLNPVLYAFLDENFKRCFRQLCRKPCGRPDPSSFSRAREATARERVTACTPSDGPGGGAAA

Each structure is given as a SMILES string.

For the test, the target named is humanDOR (Homo sapiens, UniProt P41143). In words: Receptor binding with [3H]diprenorphine at human DOR. Conditions: binding affinity Ki hDOR.

On to `C[C@@H](NC(=O)[C@@H](N)Cc1ccc(O)cc1)C(=O)NCC(=O)N(C)[C@@H](Cc1ccccc1)C(=O)NCCO` [drawing 485], for which the Ki is 980 nM.

These data come from patent US20200109126A1 (priority 2017, published 2020).
